Measured values published in ChEMBL document CHEMBL1144769 (J Med Chem, 2008).

By UniProt entry, the sequences of proteins in these tests, tags left out.
UniProt P23219, whole entry: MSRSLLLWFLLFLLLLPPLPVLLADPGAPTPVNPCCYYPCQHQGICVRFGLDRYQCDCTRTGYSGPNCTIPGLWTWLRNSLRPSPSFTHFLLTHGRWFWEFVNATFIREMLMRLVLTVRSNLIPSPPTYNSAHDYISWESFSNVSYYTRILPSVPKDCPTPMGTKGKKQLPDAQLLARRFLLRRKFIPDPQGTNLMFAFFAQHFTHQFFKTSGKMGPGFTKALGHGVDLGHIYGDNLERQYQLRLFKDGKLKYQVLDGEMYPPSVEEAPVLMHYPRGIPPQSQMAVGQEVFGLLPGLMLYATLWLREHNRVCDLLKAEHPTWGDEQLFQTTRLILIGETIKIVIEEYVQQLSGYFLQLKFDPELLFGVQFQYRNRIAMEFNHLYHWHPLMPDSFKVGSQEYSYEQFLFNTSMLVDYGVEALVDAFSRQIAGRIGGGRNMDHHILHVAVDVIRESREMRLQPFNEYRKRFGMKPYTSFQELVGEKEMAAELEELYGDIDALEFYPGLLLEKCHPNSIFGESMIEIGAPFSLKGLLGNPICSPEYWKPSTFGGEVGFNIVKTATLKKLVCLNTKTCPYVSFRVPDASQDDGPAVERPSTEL

Target: Prostaglandin G/H synthase 1 (Homo sapiens, UniProt P23219)
Assay: Inhibition of COX1

IC50: 1.4 nM
SMILES: COc1ccc(-c2noc(CC(=O)O)c2-c2ccc(OC)cc2)cc1 [MOFEZOLAC]
